Data reported in paper PMC2363230, “Human tumour-associated cell adhesion protein MN/CA IX: identification of M75 epitope and of the region mediating cell adhesion” (British Journal of Cancer, 2000).

Tests used:
[1] = molecular target: T1, M75 epitope of immobilized GST-MN (Homo sapiens, UniProt Q16790); assay: Competition ELISA, peptides binding to the epitope of immobilized GST-MN (Figure 4A); conditions: nonapeptides 7 + 2 aa, C-terminal alanine amide
T1 construct: made in house; host or cells: bacteria

[2] = tested on: adhesion of CGL1 cells to MN/CA IX; assay: Inhibition of cell adhesion to MN/CA IX dots by oligopeptides added to the media with the cell suspension (Figure 4B); format: cell-based, human; conditions: nonapeptides 7 + 2 aa, C-terminal alanine amide, absorbance at 630 nm of stained attached cells

“4: AGQTRSPLA, identified by panning on GST-MN and eluted with acetazolamide [compound 4]” was tested, and the “activity in competition ELISA of phage display-selected peptides (in words)” value [1] was “inactive” and the “activity in cell adhesion inhibition of phage display-selected peptides (in words)” value [2] was “inactive”.
